Laboratory results published in US9132135B2, “Method of treating organophosphorous poisoning” (dated 2015).

Experiments:
blood and brain AChE = settings: in vivo; cited from earlier work
guinea pigs [1] = assay: Open-field arena: locomotor activity and stereotypy
guinea pigs [2] = assay: Acute toxicity of the drugs by themselves in guinea pigs (side effects, survival, weight gain)
[3] = system: brain neurons of guinea pigs; assay: Fluoro-Jade B histopathology of hippocampus, pyriform cortex and amygdala; settings: galantamine 8 mg/kg or atropine 10 mg/kg, no soman
[4] = huperzine-A 0.3 mg/kg by itself

Molecule | decrease of both blood and brain AChE activity at doses that prevent OP toxicity (blood and brain AChE) | overall locomotor activity in open field (guinea pigs [1]; galantamine 8 mg/kg or huperzine 300 μg/kg i.m.) | locomotor stereotypy versus saline-treated animals (guinea pigs [1]; huperzine 300 μg/kg i.m., 30 minutes after treatment) | rate of weight gain within 1 week after single i.m. injection (guinea pigs [2]; drug alone: galantamine 8 mg/kg, atropine 10 mg/kg, huperzine 300 μg/kg) [% per day] | side effects (guinea pigs [2]; huperzine doses ≧300 μg/kg) | fatality by day one (guinea pigs [2]; [4]) [%] | fatality from day 2 through day 7 (guinea pigs [2]; [4]) | brain damage / FJ-B-positive neurons 24 hours after i.m. injection of drug alone [3]
huperzine A | about 70% | adversely increased the locomotor activity | significantly higher | 1.72±0.17 | transient, albeit incapacitating side effects | 30 | about 65% | –
CN1[C@@H]2CC[C@H]1C[C@@H](OC(=O)C(CO)c1ccccc1)C2 (some centres unmarked) | – | – | – | – | – | – | – | no signs of brain damage
